The list shows a part of the results, in another mix than the full data. The source made the active and inactive calls. The calls were made as follows: active = hit-call score of the fitted dose curve at least 0.9, where 1 is the maximum; inactive = score below 0.9.
Each compound was assayed on Urokinase-type plasminogen activator receptor (uPAR), PLAUR (gene 5329) (assay: BSK_BE3C_uPAR: BioMAP Diversity Plus: BE3C Assay for Urokinase-type plasminogen activator receptor (uPAR) Biomarker Activity (AID 2283039;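 as to outcome: cells exposed to compound for one day before measurement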)). Conditions: actives raise or lower the signal; primary human bronchial epithelial cells.
Protocol: BSK_BE3C is a cell-based, multiplexed-readout assay that uses bronchial epithelial cell, a human lung primary cell, with measurements taken at 24 hours after chemical dosing in a 96-well plate.BSK_BE3CAR is an assay component measured in the BSK_BE3C assay. It measures uPAR antibody related to regulation of gene expression using ELISA technology.Data from the assay component BSK_BE3CAR was analyzed into 1 assay endpoint. This assay endpoint, BSK_BE3CAR, was analyzed with bidirectional fitting relative to DMSO as the negative control and baseline of activity. Using a type of binding reporter, gain or loss-of-signal activity can be used to understand changes in the signaling as they relate to the gene PLAUR. Furthermore, this assay endpoint can be referred to as a primary readout, because this assay has produced multiple assay endpoints where this one serves a signaling function. To generalize the intended target to other relatable targets, this assay endpoint is annotated to the cytokine intended target family, where the subfamily is plasmogen activator.
The levels of cell surface (or secreted, indicated by the prefix "s") biomarker endpoints were measured by ELISA. Overt cytotoxicity to cells in confluent adherent cultures (all systems other than the BT system) was assessed by measuring total protein levels using sulforhodamine B (SRB) staining in parallel cultures at the time of biomarker measurements, indicated as SRB endpoints. For proliferation assays for adherent cell types, individual cell types are cultured at sub-confluence and relative cell numbers quantified by SRB staining at time points optimized for each system (48 h: 3C and CASM3C systems; 72 h: BT and HDF3CGF systems; 96 h: SAg system). SRB was performed by staining cells with 0.1% SRB after fixation with 10% TCA and reading wells at 560 nm.Viability and proliferation of PBMC (T cells) was quantified by Alamar Blue reduction for the SAg and BT systems. For PBMC viability (referred to as PBMC Cytotoxicity within the assay endpoint names), cells were plated (75,000/well in a 96-well plate) and then chemical samples added for 1 h before addition of activators, SEB and TSST-1 (20 ng/mL final concentration each). Cells were incubated for 90 h. Then, Alamar Blue (20 uL/well) (Invitrogen, Cat DAL1100) was added for 6 h, and the plates were read with a fluorescence microplate reader at 546/580 nm (excitation/emission). For PBMC proliferation, cells were plated and activated as above but incubated for only 16 h prior to addition of Alamar Blue. Plates were read after 6 h.

| Structure (SMILES) | outcome | AC50 |
| --- | --- | --- |
| CC(C)OP(=S)(OC(C)C)SCCNS(=O)(=O)c1ccccc1 | inactive |  |
| O=C1C2CC=CCC2C(=O)N1SC(Cl)(Cl)C(Cl)Cl (configuration not stated) | inactive |  |
| O=[N+]([O-])c1ccc([N+](=O)[O-])cc1 | inactive |  |
| O=C(Cl)Oc1ccccc1 | inactive |  |
| Cc1cc([N+](=O)[O-])cc([N+](=O)[O-])c1O |  | active: 8.41 µM |
| CN(C(=O)Cc1cccc2occc12)[C@H]1CC[C@@]2(CCCO2)C[C@@H]1N1CCCC1 | inactive |  |

The compounds below were run on Interleukin-6 (IL6), IL6 (gene 3569) (assay: BSK_CASM3C_IL6: BioMAP Diversity Plus: CASM3C Assay for Interleukin-6 (IL6) Biomarker Activity for (AID 2283040)). Conditions: actives raise or lower the signal; primary human coronary artery smooth muscle cells.

| Structure (SMILES) | outcome | AC50 |
| --- | --- | --- |
| CC(C)OP(=S)(OC(C)C)SCCNS(=O)(=O)c1ccccc1 | inactive |  |
| O=C1C2CC=CCC2C(=O)N1SC(Cl)(Cl)C(Cl)Cl (configuration not stated) |  | active: 5.5 µM |
| O=[N+]([O-])c1ccc([N+](=O)[O-])cc1 | inactive |  |
| O=C(Cl)Oc1ccccc1 | inactive |  |
| Cc1cc([N+](=O)[O-])cc([N+](=O)[O-])c1O | inactive |  |
| CN(C(=O)Cc1cccc2occc12)[C@H]1CC[C@@]2(CCCO2)C[C@@H]1N1CCCC1 | inactive |  |

— PubChem BioAssay (EPA / NIEHS)
